Laboratory results taken from paper PMC8705693, “Roles of the Na^+/H^+ Exchanger Isoform 1 and Urokinase in Prostate Cancer Cell Migration and Invasion” (International Journal of Molecular Sciences, 2021).

Chains of the proteins cited; added tags and fusions are not shown.
UniProt P19634, whole entry: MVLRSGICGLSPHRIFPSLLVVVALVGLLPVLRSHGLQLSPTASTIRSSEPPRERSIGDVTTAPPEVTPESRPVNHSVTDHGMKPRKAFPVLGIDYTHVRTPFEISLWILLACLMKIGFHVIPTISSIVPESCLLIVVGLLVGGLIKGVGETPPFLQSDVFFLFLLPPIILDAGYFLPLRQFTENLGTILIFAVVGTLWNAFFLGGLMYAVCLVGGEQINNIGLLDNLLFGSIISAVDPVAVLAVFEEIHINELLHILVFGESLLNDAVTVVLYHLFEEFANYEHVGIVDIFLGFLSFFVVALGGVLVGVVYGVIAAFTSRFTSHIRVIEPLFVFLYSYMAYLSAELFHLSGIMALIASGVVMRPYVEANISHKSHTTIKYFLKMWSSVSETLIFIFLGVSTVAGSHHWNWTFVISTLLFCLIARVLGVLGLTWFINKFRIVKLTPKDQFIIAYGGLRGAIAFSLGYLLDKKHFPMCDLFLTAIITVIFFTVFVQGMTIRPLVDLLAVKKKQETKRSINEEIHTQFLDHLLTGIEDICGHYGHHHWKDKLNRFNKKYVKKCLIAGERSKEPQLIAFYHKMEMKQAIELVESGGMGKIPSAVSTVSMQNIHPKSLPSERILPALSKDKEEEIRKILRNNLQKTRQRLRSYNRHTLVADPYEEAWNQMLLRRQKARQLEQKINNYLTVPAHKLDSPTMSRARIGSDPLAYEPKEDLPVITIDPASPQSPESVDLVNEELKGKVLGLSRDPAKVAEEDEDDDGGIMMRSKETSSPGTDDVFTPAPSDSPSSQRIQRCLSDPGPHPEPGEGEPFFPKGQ

Assays:
DU 145 cells [1] = assay: Cell migration, wound-healing assay; details: for cell migration: DU 145; for cell migration (gap closure): wild-type DU 145
Method: Figure 4 Effects of NHE1-KO or NHE1 inhibition on cell migration examined in wild-type (WT) and NHE1-knockout (KO) DU 145 cells. The rate of closure of the induced gap was evaluated using the wound-healing assay, as described in the Section 4. (A) Examples of the effects of NHE1-KO on wound closure. Upper panel: example of WT DU 145 cells with gaps at 0 and 24 h. Middle panel: example of DU 145 NHE1 KO cells at 0 and 24 h. Lower panel: example of RI cell growth. (B) Summary of results; * indicates significant differences from the same group at 0 h, p < 0.05, n ≥ 6. (C,D) Effects of different concentrations of various NHE1/uPA inhibitors on migration (gap closure) of DU 145 cells. CT: control; EMD: EM87580; other compounds are as names. (C) Summary of the effects of 2 µM of various compounds on the migration of wild-type DU 145 cells. (D) Summary of the effects of 10 µM of various compounds on the migration of wild-type DU 145 cells (BB2-30F was used at 30 µM); * indicates significant differences from untreated control cells at p < 0.05.
Cell migration was studied using a wound-healing assay similar to that described in [13]. Briefly, cells were seeded in 12-well plates ([…]) the day before assay, and then grown to a confluent monolayer. A “scratch” was created in the cell monolayer with a p20 pipette tip in a straight line. The cells were washed twice with PBS to remove the debris, and the medium was changed to 2 mL of growth medium. To obtain the same field during image acquisition, three crosses were marked on the outside of each well as a reference. The scratch gaps above and below the crosses were measured. We acquired six images of the scratch for each well using a Leica DM IRB microscope (at 10× magnification). Arbitrary measurements of gap closure were quantified using Image-Pro Plus software. A minimum of six images/well and five measurements/image were acquired for each treatment; all treatments were repeated at least three times. Data shown are representative of the decrease in gap distance at 24 h, compared to the initial measurement at 0 h. Compounds were added at the indicated concentrations.

DU 145 cells [2] = assay: Anchorage-dependent colony formation; details: 8 days
Method: To examine anchorage-dependent colony formation, we used 60 mm polystyrene dishes that had been coated to introduce hydrophilic groups producing a standard growth surface (Sarstedt, Numbrecht, Germany). To measure anchorage-dependent colony growth, the cells were plated into in the 60 mm dishes at a density of 1000 cells per dish. They were grown in complete growth media. To examine the effects of various compounds, 2–30 µM of the indicated drugs were added to culture dishes. An equal volume of DMSO (vehicle) alone was added to otherwise-untreated controls. After growth for 8 days, colonies were fixed in ice-cold methanol; they were stained with 0.5% crystal violet in methanol and washed, and then left to air-dry. The colonies of > 50 cells/colony were imaged and counted. The number of […] colonies was normalized to the number of control colonies and presented as a percentage of control colonies formed.

uPA = uPA (Homo sapiens, UniProt P00749); assay: uPA activity assay; details: for IC50: read-out: Potency (IC50) towards uPA
Method: (§1) We next tested the efficacy of a new family of NHE inhibitors on the activity of the NHE1 protein in DU 145 cells. In order to do this, we used a double-pulse assay, in which there were two consecutive ammonium-chloride-induced acidifications. The rate of recovery in the second pulse in the presence of the inhibitor was measured relative to that of the first pulse in the absence of the inhibitor. In control experiments, we observed that the second pulse, in the absence of the inhibitor, was equivalent to that of the first (Figure 3A). […] A summary of the results is shown in Figure 3C–G, [32] and a summary of the IC50 values can be found in Table 1. The various compounds tested had differing potencies towards NHE1 activity. […] EMD87580 was equivalent in potency to AA1-111 (0.45 µM). Figure 3C–G also show the inhibition of uPA activity for each compound on the same plots (red line), assayed as indicated in the Section 4. […] (Table 1).
Synthesis of NHE1/uPA inhibitors was as described previously, as was the determination of uPA activity, where each compound was described as the number in parentheses: BB2-50F (5), BB2-30F (26), AA1-111 (29), and AA1-135 (30).

NHE1 = NHE1 (Homo sapiens, UniProt P19634); assay: Na+/H+ exchanger activity, double ammonium chloride pulse assay in DU 145 cells; details: for IC50: read-out: Potency (IC50) towards NHE1, double-pulse assay
Method: as §1
Figure 3 Characterization of the effects of pharmacological compounds on the activity of the Na^+/H^+ exchanger using the double-pulse assay. Na^+/H^+ exchanger activity was determined as described in Figure 2 and in the Section 4, using a dual ammonium chloride pulse assay. The rate of recovery in the first pulse, in the absence of the drug, was measured. This was compared to the rate of recovery in the second pulse, in the presence of the drug. When both pulses were in the absence of the drugs, the two recoveries were equivalent. (A) A double-pulse assay; the second pulse was treated with vehicle only (no drug). (B) A double-pulse assay wherein the second pulse was in the presence of 10 µM BB2-50F. (C–G) A summary of the results of the double-pulse Na^+/H^+ exchanger assays (black line) for the compounds AA1-135, AA1-111, BB2-30F, BB2-50F, and EMD87580, respectively (IC50 values in Table 1). Additionally, the same figures (C–G) show the effects of these compounds on uPA activity (red line), assayed as describe d in the Section 4.
Intracellular pH was measured using 2′,7-bis(2-carboxyethyl)-5(6) carboxyfluorescein acetoxymethyl ester (BCECF-AM), in a similar manner to that described in [29]. DU 145 cells were grown to ~80–90% confluence on glass coverslips. Cells were loaded with BCECF and fluorescence was measured using a PTI Deltascan spectrofluorometer. NHE1 activity was measured after inducing an acute acid load using ammonium chloride. This was achieved by addition of ammonium chloride (50 mM × 3 min), followed by removal to induce acute acidosis. ΔpH/s was measured during the first 20 s of recovery in NaCl-containing medium (135 mM NaCl, 5 mM KCl, 1 mM MgCl2, 1.8 mM CaCl2, 5.5 mM glucose, and 10 mM HEPES, pH = 7.4, 37°). A calibration curve of pHi fluorescence was performed for every sample using nigericin [60]. For testing of the effects of inhibitors on NHE activity, a double ammonium chloride pulse protocol was used. Cells were subjected to one cycle of acidification using ammonium chloride, and then were allowed to recover in the absence of a drug, with vehicle where appropriate. Then, another cycle of acidification and recovery followed, with the drug present in both the sodium-free and normal recovery buffers. IC50 values were calculated as described previously. The measurements were highly reproducible, with activity in the second pulse averaging 98.2 +/− 7.15% of that in the first pulse. The results are the mean ± S.E. of at least seven experiments. The statistical significance was determined via the Wilcoxon–Mann–Whitney test.

[3] = tested on: established transformed human cell lines; details: read-out: half-maximal inhibition of cell viability; panel of established transformed human cell lines; cited from earlier work
DU 145 cells [4] = assay: Cell growth assay (cell counting); details: 48 h, 10 µM
Method: Cell growth was measured in wild-type DU 145, NHE1-KO, and RI cells. Cells were plated into 24-well plates and grown in 10% serum medium overnight before assay, and were approximately 50% confluent. Four wells of growing cells were washed twice with PBS, and then 0.25% trypsin-EDTA was added to detach the cells. After brief centrifugation, the cell pellets were resuspended in 1 mL of medium, and then cells were counted with a microscope using a hemocytometer. The initial cell numbers were obtained during the day. The balance of the cells was detached 24 and 48 h later and counted using the same method. A minimum of four repeats were performed for each experiment; all treatments were replicated at least three times.

HT1080 cells = assay: Tumor cell invasion in vivo, chick chorioallantoic membrane model; details: final concentration 0.5 µM in chick embryo, intravenous
Method: Our next set of experiments used a different cell line and an in vivo model. We examined whether BB2-30F was capable of blocking tumor cell invasion from primary tumors in vivo, utilizing our previously established chick chorioallantoic membrane model of human cancer progression. HT1080 cells were allowed to grow tumors for 4 days, and the drug treatment with BB2-30F was started 1 day after tumor cell inoculation. […] In contrast, treatment with a final concentration of 0.5 µM BB2-30F produced near-complete inhibition of tumor cell invasion (Figure 7a,b).
Fertilized White Leghorn chicken eggs were obtained from the University of Alberta’s Poultry Research Centre and maintained in a humidified incubator at 38 °C. After four days of incubation, embryos were removed from their shells using a Dremel rotary tool with a cutting wheel. They were maintained as previously described under shell-less conditions, in a covered dish in a humidified air incubator at 38 °C and 60% humidity, until 10 days post-fertilization. […]
For imaging, a Nikon A1r upright confocal microscope (Nikon) fitted with a temperature-regulated enclosure and a 10× objective was used (591 nm laser). […] These experimental data were plotted and analyzed for statistical significance using the Prizm analysis module.

inhibition of uPA activity (in words) (uPA) | uPA inhibition (in words) (uPA; 2 µM) | uPA inhibition (in words) (uPA; 10 µM) | IC50 (uPA) | NHE1 inhibition (in words) (NHE1; 2 µM) | NHE1 inhibition (in words) (NHE1; 10 µM) | IC50 (NHE1; DU 145 cells) | SMILES | cell migration (DU 145 cells [1]; 2 µM) | cell migration (gap closure) (DU 145 cells [1]; 10 µM, 12 h) | cell migration (gap closure) (DU 145 cells [1]; 10 µM, 24 h) | anchorage-dependent colony formation (DU 145 cells [2]; 10 µM) | other results
lower potency | minimal inhibition of uPA | only minimal inhibition of uPA activity | 5100 nM | complete NHE1 inhibition | completely inhibited NHE1 | 90 nM | N=C(N)NC(=O)c1nc(Cl)c(N2CCCOCC2)nc1N | lack of effect | slight but non-significant effects | only very slight, non-significant effects | no effect | –
lower potency | minimal inhibition of uPA | only minimal inhibition of uPA activity | 12100 nM | complete NHE1 inhibition | completely inhibited NHE1 | 450 nM | N=C(N)NC(=O)c1nc(Cl)c(N2CCOCC2)nc1N | reduced cell migration slightly | slight but non-significant effects | – | no effect | cell migration (gap closure) (DU 145 cells [1]; 2 µM, 12 h): significantly slowed cell migration; cell migration (gap closure) (DU 145 cells [1]; 2 µM, 24 h): not statistically significant
much higher potency | good inhibition of uPA | – | 240 nM | only partial inhibition of NHE1 | – | 790 nM | N=C(N)NC(=O)c1nc(-c2cc3ccccc3o2)c(N2CCCCCC2)nc1N | – | slight but non-significant effects | significant | inhibitory to colony formation | IC50 [3]: 4000 to 13000 nM; growth of DU 145 cells (DU 145 cells [4]): slight significant effect; anchorage-dependent colony formation (DU 145 cells [2]; 2 µM): not at 2 µM; rate of recovery after acute acidosis induced by ammonium chloride, second pulse in the presence of the inhibitor (NHE1; 10 µM, DU 145 cells): greatly reduced
much higher potency | good inhibition of uPA | – | 90 nM | low inhibition of NHE1 | – | 7200 nM | COc1ncc(-c2nc(C(=O)NC(=N)N)c(N)nc2N2CCCCCC2)cn1 | – | – | – | inhibited colony formation | tumor cell invasion from primary tumors (HT1080 cells): near-complete inhibition of tumor cell invasion; cell migration (gap closure) (DU 145 cells [1]; 30 µM, 12 and 24 h): only very slight, non-significant effects; anchorage-dependent colony formation (DU 145 cells [2]; 30 µM): inhibited colony formation; uPA inhibition (in words) (uPA; 10 and 30 µM): typically complete; NHE1 inhibition (in words) (NHE1; 10 and 30 µM): only partial
